Screening data deposited in PubChem by National Center for Advancing Translational Sciences (NCATS).
A selection: hits, their analogues and other compounds. The true share with any hit is near 0.92%.
RXFP1 antag – blocks the human relaxin receptor RXFP1 | Q9HBX9 | 0.59% of 350,000 active | activity change, negative = inhibition, % at 57.5 µM | AID 1259400 | HEK293-RXFP1, relaxin-stimulated cAMP HTRF, 30 min; stronger effect = lower value;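 active = activity change of -60% or lower, but not beyond a set lower limit; inconclusive = change between -60% and -40%, or beyond the set limit; inactive = change above -40%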; also: % is scaled to controls: 0 for no effect and ±100 for the full control effect
GALK inhibitor – inhibitors of human galactokinase; P51570; Purified GALK, Kinase-Glo residual ATP luminescence; Potency, µM (top dose mostly 57.5 µM), without a hit: at the top dose activity change, negative = inhibition, usual class: inhibitors; 0.007% of 270,000 active; AID 1868; also: potency is read from the fitted curve at half-maximal effect; % is scaled to controls: 0 for no effect and ±100 for the full control effect
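Kinase-Glo Plus luminescence measured ATP left after a 1 h room-temperature reaction. The reaction used 5 nM GALK, 100 uM galactose and 35 uM ATP at pH 8.0 (20 mM HEPES, 5 mM MgCl2, 60 mM NaCl, 1 mM DTT, 0.01% BSA).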
RXFP1 agonist – agonists of human relaxin receptor RXFP1. Q9HBX9. HEK293T-RXFP1 cAMP TR-FRET, 30 min; response scale: percent of porcine relaxin response, buffer zero. Potency, µM (doses to about 57.5 µM), for inactives: top-dose activation, hits mostly activators. 0.3% of 370,000 active. AID 2676; also: potency is read from the fitted curve at half-maximal effect; % is scaled to controls: 0 for no effect and ±100 for the full control effect; nearly all actives have a fitted effect of over 60% in size
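HEK293T cells stably expressing RXFP1 were pretreated with the PDE4 inhibitor Ro 20174, exposed to compounds for 30 min at 37C, lysed, and cAMP was read by TR-FRET. Data normalized to buffer (basal) and 29 nM porcine relaxin (100%).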
PKM2 act – PKM2 (human) enzyme activation; Potency, µM (highest dose often 57.5 µM), for inactives: at the top dose activation, usual class: activators; 0.34% of 260,000 active; purified PKM2, Kinase-Glo ATP luminescence, activation; response scale: 0% is enzyme alone, no compound; P14618; also: potency is read from the fitted curve at half-maximal effect; % is scaled to controls: 0 for no effect and ±100 for the full control effect; nearly all actives have a fitted effect of over 55% in size
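Kinase-Glo luminescence reports ATP generated from ADP (0.1 mM) and PEP (0.5 mM) by purified hPK-M2 after 1 h at room temperature, pH 7.2 imidazole buffer; intermediate enzyme activity allows detecting inhibitors and activators.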
miR-21 reporter – miR-21 reporter, rising signal | HeLa miR-21 FLuc reporter, luciferase, 48 h | Potency, µM (top dose mostly 38.3 µM), inactives show at the top dose reporter change, positive = more light | 340,000 tested, under 10 active | AID 2288; active = well fitted rising curve with a large enough effect; inconclusive = small, poorly fitted or top-dose-only effect; inactive = no such curve, though single readings can be large or run the other way;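 further: % of control where 0% means no effect; miR-21 action dims this reporter so a rising signal means less miR-21 action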
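HeLa miR-21-FLuc reporter line, endogenous miR-21; 2000 cells/well in DMEM/10% FBS; compound titration up to ~40uM final, 48 h, 37 degree Celsius; luciferase detection reagent, 15 min lysis, CCD luminescence.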
KinaseGlo FLuc – blocks Kinase-Glo luciferase, a counter-screen artifact; Q27757; Kinase-Glo luciferase, ATP luminescence, 8 min; Potency, µM (top dose mostly 38.3 µM), for the others: at the highest dose activity change, negative = inhibition, most hits filed as inhibitors; 0.28% of 200,000 active; AID 1379; also: potency is read from the fitted curve at half-maximal effect; % is scaled to controls: 0 for no effect and ±100 for the full control effect; nearly all actives have a fitted effect of over 60% in size
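Compound is pinned into ATP-containing buffer (10 uM ATP, imidazole pH 7.2, 7 mM MgCl2). Kinase-Glo luciferase reagent is then added. Light output is recorded following an 8-min room-temperature incubation.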
An asterisk follows results filed as active; ? = inconclusive; nt = no result; ! = not active in a repeat; [ ] = remark or other dose. Unless noted, calls follow the shape of the dose curve; as a rule, active = well fitted curve in the direction sought with a large enough effect; inconclusive = small, poorly fitted or top-dose-only effect, or another doubt; inactive = no such curve, though single readings can be large; an effect the other way counts as inactive or inconclusive.

SMILES	RXFP1 antag	GALK inhibitor	RXFP1 agonist	PKM2 act	miR-21 reporter	KinaseGlo FLuc
COc1ccc(C2Nc3ccccc3C(=O)N2Cc2ccco2)cc1CN1C(=O)c2ccccc2C1=O (stereo not drawn)	?	5%	3%	20µM*!	-8%	5%
COc1ccc(C2Nc3ccccc3C(=O)N2Cc2ccco2)cc1COc1ccc(F)cc1 (stereo not drawn)	-15	0%	1%	14µM*	13%	2%
CCC(C)Oc1nc2c(c(=O)n(C)c(=O)n2C)n1C (stereo not drawn)	-10	-3%	17%	-1%	-2%	nt
Cc1cc(Nc2cccc(C(F)(F)F)c2)nc2ccc(NC(=O)c3cccc(Cl)c3)cc12	nt	nt	-1%	nt	25%	nt
Cc1cc(Nc2cccc(C(F)(F)F)c2)nc2ccc(NC(=O)c3cccnc3)cc12	-72*	nt	6%	nt	?	nt
COc1cc(OC)cc(N(C(=O)c2snc(C(N)=O)c2N)C(C(=O)NCC2CCCO2)c2ccc(C)o2)c1 (stereo not drawn)	nt	-1%	2%	11%	21%	nt
CCOc1ccc(C(C(=O)NCC2CCCO2)N(C(=O)c2snc(C(N)=O)c2N)c2cccc(F)c2)cc1 (stereo not drawn)	-91*	-3%	0%	nt	13%	nt
Cc1ccc(C(C(=O)NCC2CCCO2)N(C(=O)c2snc(C(N)=O)c2N)c2ccc(C)c(C)c2)o1 (stereo not drawn)	-76*	8%	2%	2%	-1%	nt
Cc1cc(C)cc(N(C(=O)c2snc(C(N)=O)c2N)C(C(=O)NCC2CCCO2)c2ccc(C)o2)c1 (stereo not drawn)	-61*	-4%	0%	7%	18%	nt
CCCCC/C=C\C[C@@H]1O[C@H]1C(O)/C=C\C/C=C\CCCC(=O)O (stereo partly drawn)	nt	nt	nt	nt	nt	1%
CC(=O)O[C@@H]1C(=O)O[C@H]2[C@@H]1OC(=O)[C@@H]2OC(C)=O	21	nt	nt	nt	nt	nt
O=c1cc(-c2cccc(-c3ccc(C(F)(F)F)cc3)c2)c2cc3c(cc2o1)OCO3	nt	nt	nt	nt	nt	2%[39.9 µM]

Quoted from the listing:
Cc1ccc(C(C(=O)NCC2CCCO2)N(C(=O)c2snc(C(N)=O)c2N)c2ccc(C)c(C)c2)o1 (stereo not drawn) in miR-21 reporter shows -1%
COc1cc(OC)cc(N(C(=O)c2snc(C(N)=O)c2N)C(C(=O)NCC2CCCO2)c2ccc(C)o2)c1 (stereo not drawn) in miR-21 reporter shows 21%

The listing picks up with the two entries that preceded the break.
SMILES	RXFP1 antag	GALK inhibitor	RXFP1 agonist	PKM2 act	miR-21 reporter	KinaseGlo FLuc
CC(=O)O[C@@H]1C(=O)O[C@H]2[C@@H]1OC(=O)[C@@H]2OC(C)=O	21	nt	nt	nt	nt	nt
O=c1cc(-c2cccc(-c3ccc(C(F)(F)F)cc3)c2)c2cc3c(cc2o1)OCO3	nt	nt	nt	nt	nt	2%[39.9 µM]
Cc1ccc(Cn2c(CNS(=O)(=O)c3ccc(Cl)s3)nc3cccnc32)cc1	-1	nt	1%	nt	2%	nt
Cn1c([N+](=O)[O-])cnc1N1CCN(c2nncs2)C1=O	13	2%	16µM*	-15%	1%	nt
Cc1ncc([N+](=O)[O-])n1C	6	nt	nt	nt	nt	nt
CC(=O)c1ccc(N(CC(=O)NC2CCCC2)C(=O)c2csnn2)cc1	-82*	-1%	0%	nt	-16%	nt
Fc1ccc(-c2csc3ncnc(N4CCN(c5ccccc5)CC4)c23)cc1	-65*	5%	-1%	-1%	-1%	nt
COc1ccc(CN2CCN(c3ncnc4scc(-c5ccc(F)cc5)c34)CC2)cc1	-61*	-2%	-1%	nt	13%	nt
COc1ccc(N2CCN(c3ncnc4scc(-c5ccc(F)cc5)c34)CC2)cc1	-7	-1%	1%	-3%	22%	nt
c1ccc(-c2csc3ncnc(N4CCOCC4)c23)cc1	-7	2%	5%	0%	-1%	2%
Cc1ccccc1-n1nnnc1SCC(=O)NNC(=O)c1ccc(NC(=O)CC#N)cc1	-2	nt	-3%	nt	nt	nt
CC(NCCN(C)C)C1CCC2C3CCc4cc(O)ccc4C3CCC12C (stereo not drawn)	-15	nt	nt	nt	nt	nt
CSCCC(NS(=O)(=O)c1ccc2c(c1)c(=O)n(C)c(=O)n2C)C(=O)NC1CCN(Cc2ccccc2)CC1 (stereo not drawn)	-9	2%	18µM*	-1%	-1%	nt
CN(CC(=O)NC1CCN(Cc2ccccc2)CC1)S(=O)(=O)c1ccc2c(c1)c(=O)n(C)c(=O)n2C	2	-3%	2%	10%	0%	3%
COc1ccc(C)cc1S(=O)(=O)NCC(c1cccnc1)N1CCc2ccccc2C1 (stereo not drawn)	9	4%	-2%	11µM*	-8%	nt
